The entries are a selection whose mix differs from that of the whole data set. Results filed as inconclusive are left out. Some salts and complexes are drawn in separate pieces, as the source files them; their charges need not balance. Active and inactive are the calls of the source. The call rests on the fitted dose curve; in most records, active means well fitted inhibition curve with a large enough effect; inconclusive means small, poorly fitted or top-dose-only effect; inactive means no such curve, though single readings can be large or run the other way.
On the % scale 0 is the no-effect control and ±100 the full control effect.

The nature of this experiment: qHTS for Inhibitors of TGF-b. Further: nearly all actives have a fitted effect of over 65% in size. The settings on record: HepG2 CAGA-GFP TGF-b/SMAD3 reporter, GFP fluorescence, 18 h, TGF-beta stimulated, 500 pg/mL final; at 46.1 µM (top of the series). (qHTS replaces the single test concentration by a dilution series.)
With `CCC(c1nnnn1C1CCCC1)N1CCC(n2c(=O)[nH]c3ccccc32)CC1` (configuration not stated), the activity, negative = inhibition was inactive: -2.79%.

In the case of `COc1ccc(C(=O)NCC2(N3CCCCC3)CCCCC2)c(OC)c1OC`, the activity, negative = inhibition is inactive: 2.44%.

As for `CC(C)(C)OC(=O)N1CCC(N(C(=O)c2ccccc2)c2ccc(F)cc2)CC1`, the activity, negative = inhibition is inactive: -2.47%.

For the compound `CSc1ccccc1C(=O)NCC1(N2CCCCC2)CCCCC1`, the activity, negative = inhibition was inactive: 2.14%.

For the compound `Cc1cccc(NC2(C#N)CCN(Cc3ccccc3)CC2)c1`, the activity, negative = inhibition is inactive: 2.73%.

Regarding `O=c1[nH]c2ccccc2n1C1CCN(C(c2ccccc2OC(F)(F)F)c2nnnn2C2CCCCC2)CC1` (configuration not stated), the activity, negative = inhibition is inactive: -14%.

With `O=C(NCC1(N2CCCCC2)CCCCC1)c1ccc(Cl)nc1`, the activity, negative = inhibition is inactive: 2.71%.

Turning to `CCOC(=O)N1CCC(Nc2ccc(OC)cc2)CC1`, the activity, negative = inhibition was inactive: -6.79%.

Regarding `O=C(OC1CN2CCC1CC2)C1c2ccccc2Oc2ccccc21` (configuration not stated), the activity, negative = inhibition was inactive: 9.05%.

Turning to `N#CC1(Nc2ccccc2)CCN(Cc2ccccc2)CC1`, the activity, negative = inhibition is inactive: -3.45%.

Regarding `O=C(NCC1(N2CCCCC2)CCCCC1)c1ccc(Cl)s1`, the activity, negative = inhibition was inactive: 1.13%.

As to `O=C1C(O)=C([N+](=O)[O-])C(=O)C(O)=C1[N+](=O)[O-]`, the activity, negative = inhibition is inactive: 13%.

Take `COc1ccc(Cl)cc1C(=O)NCC1(N2CCOCC2)CCCCC1`: the activity, negative = inhibition was inactive: 14.2%.

For the compound `COc1ccc(CN(CCCl)CCCl)cc1Cl`, the activity, negative = inhibition was inactive: 4.88%.

Consider `O=[N+]([O-])c1cc([N+](=O)[O-])c(OC2CCCCC2O)c([N+](=O)[O-])c1` (configuration not stated), for which the activity, negative = inhibition is inactive: 1.98%.

In the case of `CN(C)c1cccc(C(=O)NCC2(N3CCCCC3)CCCCC2)c1`, the activity, negative = inhibition is inactive: -14.9%.

On to `CC(C)c1ccc(NC2CCN(C(=O)OC(C)(C)C)CC2)cc1`, for which the activity, negative = inhibition is inactive: -3.89%.

`CCCCn1nnnc1C(c1ccnc2ccccc12)N1CCC(n2c(=O)[nH]c3ccccc32)CC1` (configuration not stated): the activity, negative = inhibition was inactive: -27%.

Regarding `COc1cc(OC)c(C(=O)NCC2(N(C)C)CCCCC2)cc1OC`, the activity, negative = inhibition was inactive: -2.2%.

Take `O=C(NCC1(N2CCOCC2)CCCCC1)c1cc(F)c(F)cc1Cl`: the activity, negative = inhibition was inactive: -21.5%.

As for `CCC(c1nnnn1C(C)(C)C)N1CCC(n2c(=O)[nH]c3ccccc32)CC1` (configuration not stated), the activity, negative = inhibition was inactive: 0.674%.

As for `O=C(NCC1(N2CCCCC2)CCCCC1)c1cncc(Br)c1`, the activity, negative = inhibition is inactive: -4.76%.

Turning to `COc1ccc2c(c1O)-c1c(O)c(OC)cc3c1[C@H](C2)[N+](C)(C)CC3.O=[N+]([O-])c1cc([N+](=O)[O-])c([O-])c([N+](=O)[O-])c1[O-]`, the activity, negative = inhibition was inactive: 8.81%.

In the case of `CN1CCC(Nc2cccc(F)c2)CC1`, the activity, negative = inhibition is inactive: -0.519%.

With `O=C(OC1CN2CCC1CC2)c1ccc([N+](=O)[O-])cc1` (configuration not stated), the activity, negative = inhibition was inactive: 1.62%.

For `Cc1ccc(C(=O)NCC2(N(C)C)CCCCC2)o1`, the activity, negative = inhibition was inactive: -1.43%.

Turning to `CCCOc1ccc(C(=O)NCC2(N(C)C)CCCCC2)cc1OC`, the activity, negative = inhibition was inactive: 3.9%.

As to `O=C(NCC1(N2CCOCC2)CCCCC1)c1ccccc1Br`, the activity, negative = inhibition was inactive: 4.19%.

With `COc1ccc(C(c2nnnn2C2CCCC2)N2CCC(n3c(=O)[nH]c4ccccc43)CC2)cc1` (configuration not stated), the activity, negative = inhibition was inactive: -23.2%.

On to `O=C(NCC1(N2CCCCC2)CCCCC1)c1ccc(OC(F)F)cc1`, for which the activity, negative = inhibition was inactive: 9.75%.

On to `CSc1ccc(C(=O)NCC2(N3CCOCC3)CCCCC2)cc1`, for which the activity, negative = inhibition was inactive: -0.454%.

As for `CCOc1ccc(C(=O)NCC2(N3CCOCC3)CCCCC2)cc1`, the activity, negative = inhibition was inactive: -0.578%.

In the case of `O=C(NCC1(N2CCCCC2)CCCCC1)c1cccc([N+](=O)[O-])c1`, the activity, negative = inhibition was inactive: 6.21%.

For `CCN1CCC(Nc2ccc(Cl)cc2)CC1`, the activity, negative = inhibition is inactive: 0.138%.

Turning to `N#CC1(Nc2ccccc2)CCN(CCc2ccccc2)CC1`, the activity, negative = inhibition was inactive: 0.422%.

Turning to `CCCOc1cccc(C(=O)NCC2(N3CCOCC3)CCCCC2)c1`, the activity, negative = inhibition is inactive: -12.6%.

With `O=C(NCC1(N2CCCCC2)CCCCC1)c1cccc(C(F)(F)F)c1`, the activity, negative = inhibition was inactive: -5.04%.

Regarding `CN1CCN(CCOC(=O)C(O)(c2ccccc2)c2ccccc2)CC1`, the activity, negative = inhibition was inactive: 5.7%.

Take `COc1ccc(NC2CCN(C(=O)OC(C)(C)C)CC2)cc1`: the activity, negative = inhibition was inactive: -7.3%.

For the compound `CC(C)c1ccc(C(=O)NCC2(N3CCOCC3)CCCCC2)cc1`, the activity, negative = inhibition was inactive: 12.9%.

Regarding `COc1cc(C(=O)NCC2(N3CCCCC3)CCCCC2)ccc1OC(F)F`, the activity, negative = inhibition is inactive: 3.18%.

In the case of `O=C(NCC1(N2CCOCC2)CCCCC1)c1cc(=O)[nH]c2ccccc12`, the activity, negative = inhibition was inactive: -17.5%.

The record behind these values is PubChem BioAssay AID588855 (National Center for Advancing Translational Sciences (NCATS), 2011).
